Paper PMC2890073 (Immunogenetics, 2010)

Test system: Mamu-B*08301

direct binding of radiolabeled ligand to purified Mamu-B*08301: did not bind
Sequence: FPFKYAAAF
